The first experiment addresses T1, Proteinase-activated receptor 1 (Homo sapiens, UniProt P25116).
T1 sequence (P25116 whole entry): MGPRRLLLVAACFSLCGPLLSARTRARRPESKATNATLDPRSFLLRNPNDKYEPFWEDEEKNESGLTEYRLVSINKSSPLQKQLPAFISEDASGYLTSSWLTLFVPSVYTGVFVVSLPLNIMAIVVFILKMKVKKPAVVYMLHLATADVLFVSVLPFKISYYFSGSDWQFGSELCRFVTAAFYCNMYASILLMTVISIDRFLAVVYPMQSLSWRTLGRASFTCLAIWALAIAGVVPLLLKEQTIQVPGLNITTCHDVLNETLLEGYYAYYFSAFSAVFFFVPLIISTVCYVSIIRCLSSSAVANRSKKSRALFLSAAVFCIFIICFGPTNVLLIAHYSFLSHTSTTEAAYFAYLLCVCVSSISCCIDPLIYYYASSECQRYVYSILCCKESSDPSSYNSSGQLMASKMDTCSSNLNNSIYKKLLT
Nature of the experiment: Inhibition of [3H]S-(p-F-Phe)-Har-L-Har-KY-NH2 binding to thrombin receptor (PAR-1) on membranes from CHRF cells. It is filed as cell membranes.
Broadly, the IC50 is the concentration at which inhibition is half-maximal. Low readings indicate higher potency, high ones lower potency. With `C/C(=C\c1ccccc1)C(=O)Nc1n[nH]c(C(=O)N[C@@H](CC2CCCCC2)C(=O)N[C@@H](CCCN=C(N)N)C(=O)N[C@@H](Cc2ccccc2)C(N)=O)n1`, the IC50 amounted to 4.2 µM.

In turn, `N=C(N)NCCC[C@H](NC(=O)[C@H](CC1CCCCC1)NC(=O)c1n[nH]c(NC(=O)/C(=C/c2ccccc2)c2ccccc2)n1)C(=O)N[C@@H](Cc1ccccc1)C(N)=O` registered an IC50 of 3.1 µM.

In the case of `N=C(N)NCCC[C@H](NC(=O)[C@H](CC1CCCCC1)NC(=O)c1n[nH]c(NC(=O)/C(F)=C/c2ccccc2)n1)C(=O)N[C@@H](Cc1ccccc1)C(N)=O`, the IC50 came out at 2.2 µM.

On to `N=C(N)NCCC[C@H](NC(=O)[C@H](CC1CCCCC1)NC(=O)c1n[nH]c(N)n1)C(=O)N[C@@H](Cc1ccc(O)cc1)C(N)=O`, for which the IC50 came out at 6 µM.

In turn, `N=C(N)NCCC[C@H](NC(=O)[C@H](CC1CCCCC1)NC(=O)c1cncc(Br)c1)C(=O)N[C@@H](Cc1ccccc1)C(N)=O` registered an IC50 of 1.7 µM.

The next experiment addresses T1, Proteinase-activated receptor 1. The experiment is described as follows: Inhibition of [3H]S-(p-F-Phe)-Har-L-Har-KY-NH2 binding to Thrombin receptor 1 (PAR-1) on membranes from CHRF cells. It is filed as cell membranes.
For `N#Cc1ccc(/C=C/C(=O)Nc2nc(C(=O)N[C@@H](CC3CCCCC3)C(=O)N[C@@H](CCCNC(=N)N)C(=O)N[C@@H](Cc3ccccc3)C(N)=O)n[nH]2)cc1`, the IC50 was found to be 31 µM.

The record behind these values is ChEMBL document CHEMBL1131716, “Heterocycle-peptide hybrid compounds. Aminotriazole-containing agonists of the thrombin receptor (PAR-1)” (Bioorg Med Chem Lett, 1999).
